Compound activity (PubChem)
SR-BI DiI-HDL act: activators of SR-BI mediated DiI-HDL uptake, primary screen, ldlA[mSR-BI] CHO cells, DiI fluorescence; 3 h; 100 = double the neutral-control signal; AID 504775, 2011; 320,000 tested, 0.096% active; activation, % at 12.5 µM;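 active means mean replicate activation of at least 60% and every replicate at or above 60%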;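 further: 0% = median plate neutral-control signal and 100% = twice that signal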
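material = CHO ldlA[mSR-BI] cells | medium = Ham's F12 with 0.5% BSA, HEPES 25 mM, pH 7.4 | reagent = fluorescent DiI-HDL, 10 µg/mL final | compound dosing = single-point compound dose | incubation = 3 h, 37 °C | measured by = bottom-read fluorescence, 550/595 nm | measure = HDL uptake via cellular fluorescence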
INS-1E GSIS act: GLuc luminescence reporter in INS-1E cells, primary screen for activators of glucose-dependent secretion of insulin | INS-1E GLuc reporter insulin secretion, 2-3 h | activation, % at 16.6 µM | 370,000 tested, 0.61% active | AID 743287, 2014;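 active means lowest replicate activation of at least 40%, so every replicate reaches that level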;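 further: 0% = median of neutral control wells and 100% = median of IBMX positive control wells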
Yeast UUG start-1: modulators of yeast start codon fidelity, primary screen, whole organism, S. cerevisiae, single point, plate reader | AID 602363, 2012 | S. cerevisiae UUG-firefly luciferase reporter, luminescence/redox ratio | activity score, % at 18.7 µM | hit rate 0.13% among 350,000;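 active = replicate mean at a twofold rise or more, about +100% in these data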;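 also: firefly luciferase made from a UUG start codon reports start codon fidelity; reporter light over untreated wells divided by growth signal over untreated wells; some hits fall short of that in this replicate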
SR-BI DiI inh: inhibitors of SR-BI mediated HDL lipid uptake, primary screen, ldlA[mSR-BI] cells, fluorescence, single point. AID 488896, 2010. ldlA[mSR-BI] CHO cells, DiI-HDL uptake fluorescence, 3 h. inhibition, % at 12.5 µM. Scavenger receptor class B member 1 (Mus musculus), Q61009. 320,000 tested, 0.96% active;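 active means mean replicate inhibition of at least 70% and a set share of replicates each scoring 70 or more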;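 further: 0% = median of neutral control wells and 100% = median of positive control wells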
Yeast UUG start-2: enhancers of UUG start codon usage in yeast, dose response, S. cerevisiae, UUG firefly luciferase, cherry-pick, set 2 | shares compounds with Yeast UUG start-1 | luminescence, 4 h; 100% means double the DMSO signal | activation, % at 38 µM | 540 tested, under 10 active;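 active means signal increase whose fitted curve reaches an absolute level of 40 at a concentration under 10 µM; inactive means activity opposite to the expected increase, or the rest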
* hit, by the source's call; i = inactive; x = not tested or not shown. A selection: hits, their analogues and other compounds. The true share with any hit is near 1.3%.

SR-BI DiI-HDL act,INS-1E GSIS act,Yeast UUG start-1,SR-BI DiI inh,Yeast UUG start-2,structure
x,18.1,-8.8,x,x,C[C@@H]1CN([C@@H](C)CO)C(=O)c2cccc(NC(=O)c3ccncc3)c2O[C@H]1CN(C)C(=O)Nc1ccc(F)cc1
20.2,x,285.9*,-20.2,-7.5,Cc1sc2nc(CN3CCOCC3)nc(N3CCC(C(N)=O)CC3)c2c1C
-13.7,x,-17.6,13.7,x,Cc1sc2nc(CN3CCOCC3)nc(N3CCOCC3)c2c1C
x,16.8,155.7*,x,15.2,CC1CN(Cc2c(O)ccc3c2oc(=O)c2ccccc23)CC(C)O1 (stereo unspecified)
x,-10.4,146.1*,x,i,Cc1ccc(S(=O)(=O)N[C@H]2CC[C@H](CCNC(=O)C3CCCCC3)O[C@H]2CO)cc1
x,-0.7,126.9*,x,i,COc1ccccc1S(=O)(=O)N[C@H]1CC[C@@H](CCNC(=O)C2CCCC2)O[C@@H]1CO
x,7.2,135.6*,x,i,CC(C)NC(=O)N[C@H]1CC[C@H](CCNC(=O)C2CCC2)O[C@H]1CO
x,30.0,-9.5,x,x,CC(C)NC(=O)N[C@@H]1CC[C@H](CCNC(=O)C2CCC2)O[C@@H]1CO
x,4.4,-14.6,x,x,Cc1ccc(S(=O)(=O)N[C@@H]2CC[C@@H](CCNC(=O)C3CCCCC3)O[C@@H]2CO)cc1
x,11.3,-7.0,x,x,CCCNC(=O)C[C@H]1CC[C@H]2[C@H](COc3ccc(NC(=O)NCC)cc3C(=O)N2C)O1
18.8,0.0,154.9*,-18.8,-3.9,CSc1ccc(S(=O)(=O)NC2CC2)cc1
x,-3.6,-16.7,x,x,O=C(O)C[C@@H]1C[C@H]2c3cc(NC(=O)c4ccc5c(c4)OCO5)ccc3O[C@H]2[C@@H](CO)O1
x,5.1,118.7*,x,i,COC(=O)C[C@H]1C[C@@H]2c3cc(NC(=O)CC4CC4)ccc3O[C@@H]2[C@@H](CO)O1
x,1.1,38.5*,x,i,O=C(O)C[C@H]1C[C@H]2c3cc(NC(=O)c4ccc5c(c4)OCO5)ccc3O[C@H]2[C@@H](CO)O1
x,-9.4,61.2*,x,i,O=C(Nc1ccc2c(c1)[C@@H]1C[C@@H](CC(=O)N3CCc4ccccc4C3)O[C@@H](CO)[C@@H]1O2)Nc1ccccc1F
x,4.2,57.0*,x,i,COc1ccc(NC(=O)Nc2ccc3c(c2)[C@@H]2C[C@@H](CC(=O)NCC4CC4)O[C@@H](CO)[C@@H]2O3)cc1
x,-7.1,x,x,x,O=C(Nc1ccc(C(F)(F)F)cc1)Nc1ccc2c(c1)[C@H]1C[C@H](CC(=O)N3CCc4ccccc4C3)O[C@@H](CO)[C@H]1O2
x,18.2,-13.3,x,x,C[C@@H]1CCCCO[C@@H](CN(C)S(=O)(=O)c2cccs2)[C@H](C)CN([C@@H](C)CO)C(=O)c2cc(NC(=O)Nc3ccccc3)ccc2O1
x,3.8,-14.6,x,x,C[C@@H]1CN([C@@H](C)CO)C(=O)Cc2cc(NC(=O)c3ccncc3)ccc2O[C@H]1CN(C)S(=O)(=O)c1ccc(F)cc1
x,-3.6,0.2,x,x,CCCNC(=O)C[C@@H]1CC[C@H]2[C@@H](COc3ccc(NC(=O)c4ccc(Cl)cc4)cc3C(=O)N2C)O1
x,21.7,75.0*,x,i,O=C(C[C@@H]1C[C@H]2c3cc(NC(=O)NC4CCCCC4)ccc3O[C@H]2[C@H](CO)O1)NCc1ccccn1
x,3.6,-22.2,x,x,O=C(C[C@@H]1C[C@H]2c3cc(NC(=O)NC4CCCCC4)ccc3O[C@H]2[C@@H](CO)O1)NCc1ccccn1
12.6,-0.9,x,-12.6,11.2,CC(C)(C#CC(O)(c1ccccc1)c1ccccc1)N1CCCC1
14.4,3.9,x,-14.4,1.3,CC(O)(C#CCN1CCCCCC1)c1ccccc1 (stereo unspecified)
12.3,4.7,-1.8,-12.3,x,CC(C)(C#CC(O)(c1ccccc1)c1ccccc1)N1CCCCC1

Compound profiles, as listed above. Values in the order: SR-BI DiI-HDL act, INS-1E GSIS act, Yeast UUG start-1, SR-BI DiI inh, Yeast UUG start-2
Entry for `CCCNC(=O)C[C@@H]1CC[C@H]2[C@@H](COc3ccc(NC(=O)c4ccc(Cl)cc4)cc3C(=O)N2C)O1` → x, -3.6, 0.2, x, x
Entry for `O=C(O)C[C@@H]1C[C@H]2c3cc(NC(=O)c4ccc5c(c4)OCO5)ccc3O[C@H]2[C@@H](CO)O1` → x, -3.6, -16.7, x, x

Part of the list above in order of SMILES length, lowest first:
SR-BI DiI-HDL act,INS-1E GSIS act,Yeast UUG start-1,SR-BI DiI inh,Yeast UUG start-2,structure
x,7.2,135.6*,x,i,CC(C)NC(=O)N[C@H]1CC[C@H](CCNC(=O)C2CCC2)O[C@H]1CO
x,-10.4,146.1*,x,i,Cc1ccc(S(=O)(=O)N[C@H]2CC[C@H](CCNC(=O)C3CCCCC3)O[C@H]2CO)cc1
x,-9.4,61.2*,x,i,O=C(Nc1ccc2c(c1)[C@@H]1C[C@@H](CC(=O)N3CCc4ccccc4C3)O[C@@H](CO)[C@@H]1O2)Nc1ccccc1F

Going on with the list.
SR-BI DiI-HDL act,INS-1E GSIS act,Yeast UUG start-1,SR-BI DiI inh,Yeast UUG start-2,structure
x,12.1,-5.8,x,x,C[C@@H]1CN([C@H](C)CO)C(=O)c2cccc(NC(=O)Nc3ccccc3)c2O[C@H]1CN(C)C
-52.8,x,1.3,52.8,x,COc1ccc(NC(=O)c2ccc(NS(=O)(=O)c3c(C)noc3C)cc2)cc1OC
-0.4,x,441.9*,0.4,-4.0,COc1ccccc1NC(=O)c1ccc(NS(=O)(=O)c2c(C)noc2C)cc1
-19.7,11.1,-10.4,19.7,4.5,COc1cccc(OC)c1NC(=O)Cc1nn(C)c(=O)c2ccccc12
x,7.2,1.0,x,x,COc1ccccc1NC(=O)COc1ccc(-c2nn(C)c(=O)c3ccccc23)cc1
3.1,x,-16.1,-3.1,x,Cn1nc(CC(=O)NCc2cccc3ccccc23)c2ccccc2c1=O
20.5,x,-18.4,-20.5,-6.8,Cc1csc(NC(=O)Cc2nn(C)c(=O)c3ccccc23)n1
x,x,x,x,i,Cn1nc(CC(=O)Nc2ccc(Oc3ccccc3)cc2)c2ccccc2c1=O
22.2,x,-19.1,-22.2,-1.4,COc1ccccc1NC(=O)Cc1nn(C)c(=O)c2ccccc12
x,-7.1,25.4,x,x,O=C(C[C@H]1CC[C@@H]2[C@H](COC[C@@H](O)CN2S(=O)(=O)c2ccc(Cl)cc2)O1)N[C@H]1CCN(Cc2ccccc2)C1
-46.7,x,-2.7,46.7,x,CC(C)(C)OC(=O)N1CCN(c2ccc(NC(=O)Cn3nnc(-c4ccccc4)n3)cc2)CC1
12.2,x,736.2*,-12.2,3.6,Cn1nc(CC(=O)Nc2ccc(N3CCN(C(=O)OC(C)(C)C)CC3)cc2)c2ccccc2c1=O
-14.7,-28.9,-8.6,14.7,3.9,COc1cc(NC(=O)Cc2nn(C)c(=O)c3ccccc23)cc(OC)c1
6.4,-6.7,-12.4,-6.4,x,Cn1nc(CC(=O)NCc2ccc(F)cc2)c2ccccc2c1=O
x,-2.4,x,x,x,CN(C)C(=O)C[C@@H]1CC[C@@H]2[C@@H](COc3ccc(NC(=O)C4CCC4)cc3C(=O)N2C)O1
11.2,10.8,4.9,-11.2,x,CN(CC#CC(O)(c1ccccc1)c1ccccc1)C(C)(C)C
-5.0,-7.9,x,5.0,-2.7,COC(C#CCCN(C)C)(c1ccccc1)c1ccccc1
x,8.3,x,x,x,C[C@@H]1CN([C@@H](C)CO)C(=O)c2cc(C#CCN(C)C)cnc2O[C@H]1CN(C)C(=O)Cc1ccccc1
x,-5.8,153.2*,x,i,C[C@@H]1CN([C@@H](C)CO)C(=O)c2cc(C#Cc3ccccc3F)cnc2O[C@@H]1CN(C)C(=O)Cc1cccnc1
x,6.2,175.7*,x,i,C[C@@H]1CN([C@@H](C)CO)C(=O)c2cc(C#CCN(C)C)cnc2O[C@@H]1CN(C)C(=O)Cc1ccccc1
x,22.9,3.7,x,x,C[C@@H]1CCCCO[C@H](CN(C)C(=O)Cc2ccccc2)[C@@H](C)CN([C@H](C)CO)C(=O)c2cc(NC(=O)c3ccncc3)ccc2O1
10.8,-14.6,x,-10.8,-4.7,CC(=O)OCC(=O)N1CCN(c2ccc([N+](=O)[O-])cc2)CC1
10.8,-18.3,x,-10.8,0.2,CC(=O)N1CCN(c2ccc([N+](=O)[O-])cc2)CC1

Taken from above:
In Yeast UUG start-2, Cn1nc(CC(=O)Nc2ccc(N3CCN(C(=O)OC(C)(C)C)CC3)cc2)c2ccccc2c1=O has the entry 3.6
In INS-1E GSIS act, CN(C)C(=O)C[C@@H]1CC[C@@H]2[C@@H](COc3ccc(NC(=O)C4CCC4)cc3C(=O)N2C)O1 has the entry -2.4
